Source: US20160331662A1, “Compositions that Inhibit and Prevent the Formation of Dental Caries and Methods of Using the Same” (priority 2014, published 2016)

Sequences of proteins named here, by UniProt entry; tags and fusion partners are left off. Residues count along the entry.
UniProt Q9UGM3, 102-202: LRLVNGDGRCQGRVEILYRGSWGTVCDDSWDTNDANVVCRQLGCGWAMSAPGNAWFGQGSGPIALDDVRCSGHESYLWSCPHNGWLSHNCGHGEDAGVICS
UniProt Q9UGM3, 102-463 limits assumed: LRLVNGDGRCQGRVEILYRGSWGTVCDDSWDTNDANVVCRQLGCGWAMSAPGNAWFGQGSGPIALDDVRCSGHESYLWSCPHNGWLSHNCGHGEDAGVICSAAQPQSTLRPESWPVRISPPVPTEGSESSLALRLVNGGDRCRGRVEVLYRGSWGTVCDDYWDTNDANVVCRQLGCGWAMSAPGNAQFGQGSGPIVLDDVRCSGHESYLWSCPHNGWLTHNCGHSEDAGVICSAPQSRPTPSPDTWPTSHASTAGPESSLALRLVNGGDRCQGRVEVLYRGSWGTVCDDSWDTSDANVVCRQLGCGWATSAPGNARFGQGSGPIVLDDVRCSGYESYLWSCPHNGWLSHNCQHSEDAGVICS

Legend:
[1] = biological target: iSRCR1 (human) (UniProt Q9UGM3); test: SPR, analyte over ligand immobilized on CM5 chip, 1:1 Langmuir model; SPR with calcium; immobilized iSRCR1, not deglycosylated
[2] = biological target: iSRCR1 (Deglycosylated) (human) (UniProt Q9UGM3); test: SPR, analyte over ligand deglycosylated on the CM5 chip, 1:1 Langmuir model
[3] = biological target: iSRCR123 (Deglycosylated) (human) (UniProt Q9UGM3); test: as above
[4] = biological target: iSRCR123 (human) (UniProt Q9UGM3); test: SPR, analyte over ligand immobilized on CM5 chip, 1:1 Langmuir model

| Substance | Ka [1] [M⁻¹] | Kd [1] [nM] | Ka [2] [M⁻¹] | Ka [3] [M⁻¹] | Ka [4] [M⁻¹] | Kd [4] [nM] |
| --- | --- | --- | --- | --- | --- | --- |
| A3VP1^SspB (S. gordonii DL1 SspB, residues 386-805) (from UniProt P16952 386-805) | 2.99e+07 | 34.1 | 2.96e+06 | – | – | – |
| C123^SspB (S. gordonii DL1 SspB, residues 913-1406) (from UniProt P16952 913-1406) | 2.16e+06 | 464 | – | 161000 | 1.61e+06 | 621 |
